Values quoted from earlier work, collected in US20220273590A1, “COMPOUNDS FOR PREVENTION AND TREATMENT OF POST-OPERATIVE COGNITIVE DYSFUNCTION” (ABREXA PHARMACEUTICALS, INC., priority 2019, published 2022).

Details: after coronary artery bypass graft surgery (Mathew et al. 2004); cited from earlier work

For “Pexelizumab: a humanized monoclonal antibody used as an immunosuppressive drug”, the “effect on POCD” value is given as “no effect”.
